Ab-14 light chain CDR variants: yeast mating affinities

Data: MIT Lincoln Laboratory AlphaSeq set, Engelhart et al. 2022, doi:10.1038/s41597-022-01779-4, as distributed in FLAb.

Antigen: PDVDLGDISGINAS, a 14-residue peptide of the SARS-CoV-2 spike HR2 region.

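The starting antibody came from a phage panning campaign against this peptide. Variants in AAYL50 differ from the parent at up to three CDR positions; double and triple changes were sampled at random. AlphaSeq pools MATa yeast showing the antibodies with MATalpha yeast showing the peptide. Pairs that bind mate more often; barcode pairs of the diploids are counted by sequencing. A regression on co-assayed BCL2-family reference pairs converts the normalised counts of each replicate to an apparent Kd. The assay was run in three technical replicates.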

Parent: Ab-14, a human scFv built as VH, a 15-residue (Gly4Ser)3 linker, VL. Only the CDRs of the light chain vary.
VH: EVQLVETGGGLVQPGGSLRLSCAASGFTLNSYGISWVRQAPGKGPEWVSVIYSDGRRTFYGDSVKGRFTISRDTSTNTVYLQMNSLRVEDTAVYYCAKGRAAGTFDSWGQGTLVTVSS
VL: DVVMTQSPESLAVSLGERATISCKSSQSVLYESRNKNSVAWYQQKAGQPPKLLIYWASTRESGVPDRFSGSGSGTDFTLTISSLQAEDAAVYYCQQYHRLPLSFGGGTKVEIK

Variants are written as CDR1, CDR2 and CDR3 of the light chain (limits as in the source). Parent: KSSQSVLYESRNKNSVA, WASTRES, QQYHRLPLS. The Kd shown is the geometric mean over detected replicates; a lower Kd is a better binder. "no signal" marks a missing value. The strain was present, yet no cells mated with the target were sequenced in any replicate, which points to weak or no binding.

| # | apparent Kd | replicates with signal | CDR-L1 | CDR-L2 | CDR-L3 |
|---|---|---|---|---|---|
| 1 | 11 µM | 2/3 | RPSQSVLYESRNKNSVA | WASTRES | QQYHRLYLS |
| 2 | 270 nM | 3/3 | KSTQSVLYESRNKNSVA | WASTRES | QQYRRLPES |
| 3 | 2.4 µM | 3/3 | ISSQSVLYESRNKNSVA | WASTRES | TGYHRLPLS |
| 4 | 30 nM | 3/3 | KSSWSVLYEARNKNSVA | WASTREN | QQYHRLPLS |
| 5 | no signal | 0/3 | KSSQSFLYESRNDNVVA | WASTRES | QQYHRLPLS |
| 6 | 200 nM | 3/3 | KSSQSVLYESRAKNSVA | WAETRES | QQYHRLPYS |
| 7 | no signal | 0/3 | KSSQSVLYESRNKFSVA | WASEREY | QQYHRLPLS |
| 8 | 27 µM | 2/3 | KSSQSVLYWSRNKNSVA | WASTAES | RQYHRLPLS |
| 9 | 770 pM | 3/3 | KSVVSVLYESRNKNSVA | DASTRES | QQYHRLPLS |
| 10 | 710 pM | 3/3 | KVSQSILYESRNKNSVA | WASTRES | QQYHRLPLS |
| 11 | 15 nM | 3/3 | KSSQSVLYESRGKNSVA | WASTRES | QQYHRQPLS |
| 12 | 1.8 µM | 3/3 | KSSQSVLYESRNFNSVA | WAMTRDS | QQYHRLPLS |
| 13 | 1.1 mM | 1/3 | KSSQSQLVESRNKNSRA | WASTRES | QQYHRLPLS |
| 14 | 8.9 µM | 1/3 | KSSQSVLYESRNKNSVA | WASTNKS | QQSHRLPLS |
| 15 | 23 µM | 1/3 | KSSQSVLYESRNMNSVA | WASTWEN | QQYHRLPLS |
| 16 | no signal | 0/3 | KSSQSVLYESRNKNSVA | WVSTRSS | QQYHRLPWS |
| 17 | no signal | 0/3 | KSSGSVLYESRNKNSTA | WASTRES | QQQHRLPLS |
| 18 | 36 µM | 1/3 | KSSNSVLYESRNKNSVA | WASTRES | QQEHRLPLP |
| 19 | no signal | 0/3 | KSSQSVLYESRNKNSVA | WASTRES | LQYHRLPLR |
| 20 | 2.7 nM | 3/3 | KSSGSVLYEDRNKNSVA | WASTRES | QQYHRPPLS |
| 21 | 800 nM | 3/3 | KSSQSVLYESRLKNSVA | YASTRES | QQYHRLPGS |
| 22 | 1.9 nM | 3/3 | KVSQSVLYESRNKNSVA | WASTRES | QQYHRLPIS |
| 23 | 3.6 µM | 2/3 | KSKQSVLYESRNKNSVA | WASTVES | QQYHYLPLS |
| 24 | 17 nM | 3/3 | KSSQSVLYESRNANSVA | WASTRES | QQYHRLPWS |
| 25 | 14 µM | 2/3 | KSSQSWLQESRNKNSVA | WASTRES | QQWHRLPLS |
| 26 | 20 nM | 3/3 | KSSQDVLYESRRKNSVA | WANTRES | QQYHRLPLS |
| 27 | 64 nM | 3/3 | KYSQSVLYESRCFNSVA | WASTRES | QQYHRLPLS |
| 28 | 70 nM | 3/3 | KSSQSVNYESRNRNSVA | WASNRES | QQYHRLPLS |
| 29 | no signal | 0/3 | KSSHSVLYESRNKNSVA | WASTEES | QQYNRLPLS |
| 30 | no signal | 0/3 | KWSQSVLYESRNKNSVA | WHSTREC | QQYHRLPLS |
| 31 | 47 µM | 3/3 | VSSQSVLKESRNKNSVA | WMSTRES | QQYHRLPLS |
| 32 | 16 µM | 3/3 | KSSQSVLYESRNKNSVA | WASTRHS | QQSHRLLLS |
| 33 | 96 µM | 1/3 | KSSQSVLYESRNKNSVA | WADTRFS | QQYCRLPLS |
| 34 | no signal | 0/3 | KSSQSVLYEGRNKNSVA | WASTFES | QQEHRLPLS |
| 35 | no signal | 0/3 | KSSQSVLYCSRTKNSVA | WASTRES | QQYHRLPLS |
| 36 | 12 µM | 2/3 | KSSQSVLYESRWKNSVA | WASTREF | QQYKRLPLS |
| 37 | 19 µM | 1/3 | KSSQSVLYESRNKNSVA | WASTRES | QQYDSLPDS |
| 38 | 100 nM | 3/3 | KSSQSVMAESRNKNSVA | WAHTRES | QQYHRLPLS |
| 39 | 3.9 nM | 3/3 | KSSQNVLYESRNKNSVA | WASTRES | QQYYRLPLV |
| 40 | 9.8 µM | 1/3 | KSSQSVLYESRNKNSVA | WASLMES | QQYHRLPLL |
| 41 | 8.7 nM | 3/3 | KSSQSVMYESRNKRSVA | WADTRES | QQYHRLPLS |
| 42 | 8.6 µM | 2/3 | KSSQSVLYESRNKFSVA | WAKTRES | QQYHRLPLG |
| 43 | 190 nM | 3/3 | KSSQSCLMESRNKISVA | WASTRES | QQYHRLPLS |
| 44 | 23 nM | 3/3 | KSSQSVLYESRNRNSMA | WASTRES | QQYHRLCLS |
| 45 | 74 nM | 3/3 | KSSQSVLYESRNRNSVA | WASTRES | QQYHRLWLS |
| 46 | 60 nM | 3/3 | KWSQSVLYESRNKNHVA | WASTREM | QQYHRLPLS |
| 47 | 52 nM | 3/3 | KSSYSVLYESRNLNSVA | WASTRES | QQLHRLPLS |
| 48 | 29 nM | 3/3 | KVSQSYLYEVRNKNSVA | WASTRES | QQYHRLPLS |
| 49 | 8.4 µM | 2/3 | SSSQSVLYESRNKNSVA | WASTQES | HQYHRLPLS |
| 50 | no signal | 0/3 | KSSQSVLYESICKNSVA | WASTRES | QQYHRLFLS |
| 51 | no signal | 0/3 | KSSQSVLYESRNCNSVA | WASTRES | QQYHRLMTS |
| 52 | no signal | 0/3 | KSSQSVLYESRNKNSTA | WAGTAES | QQYHRLPLS |

Excerpt, the first 4 entries:

| CDR-L1 | CDR-L2 | CDR-L3 | apparent Kd | replicates with signal |
|---|---|---|---|---|
| RPSQSVLYESRNKNSVA | WASTRES | QQYHRLYLS | 11 µM | 2/3 |
| KSTQSVLYESRNKNSVA | WASTRES | QQYRRLPES | 270 nM | 3/3 |
| ISSQSVLYESRNKNSVA | WASTRES | TGYHRLPLS | 2.4 µM | 3/3 |
| KSSWSVLYEARNKNSVA | WASTREN | QQYHRLPLS | 30 nM | 3/3 |

Three control strains display no target. For library AAYL50, 18% of the pairings with them gave a signal, with a median of 15 µM and one signal in twenty below 970 nM, so weak values seen in few replicates may be background.